Ab-14 light chain CDR variants: yeast mating affinities

All variants were tested on one target, the spike HR2 peptide PDVDLGDISGINAS (SARS-CoV-2).

Each scFv is VH, three GGGGS repeats, VL, as in the parent Ab-14, and differs from it in the CDRs of the light chain only.
VH: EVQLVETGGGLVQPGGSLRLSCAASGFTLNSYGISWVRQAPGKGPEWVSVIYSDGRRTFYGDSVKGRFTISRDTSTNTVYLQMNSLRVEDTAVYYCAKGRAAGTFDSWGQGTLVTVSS
VL: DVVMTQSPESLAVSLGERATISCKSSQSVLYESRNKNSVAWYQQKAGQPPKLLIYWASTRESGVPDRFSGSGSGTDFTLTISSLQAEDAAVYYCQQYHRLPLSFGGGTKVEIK

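Phage display of a naive human antibody library on the peptide gave the parent. These sequences belong to a second round, designed from the earlier measurements on random variants of the parent. Their group label is 14L_GP_Gibbs (GP: Gaussian process model; Gibbs: Gibbs sampling; a sequence that several methods proposed may carry one label only). Affinity was read by AlphaSeq, a pooled yeast mating assay with surface-displayed partners. The frequency of each diploid, read from paired DNA barcodes, reflects how well the two displayed proteins bind. Each replicate has its own calibration line, from reference interactions of the BCL2 family. Mating was done six times.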

The parent's light chain CDRs are KSSQSVLYESRNKNSVA, WASTRES, QQYHRLPLS; each variant's own CDRs replace them letter for letter. Affinities are written as log10 Kd with Kd in nM; a lower number is a better binder. Averages over replicates are reported, and they cover detected replicates only.

For KFDQSWLYESRNKNSVA | HASQRCS | QQYHRLPLS, the assay gave 0.51, 0.28, 0.22, 0.40, 0.37, 0.38 (mean 0.36; controls 0 of 18).
For KMSQSVLQGGRNDNSVA | SASTRCS | QQYHRLPLS, the assay gave 0.75, 0.42, 0.61, 0.36, 0.85, 1.22 (mean 0.70; controls 0 of 18).
For KSSQSVEMESRNSNNVA | DASQRES | QQYHRLPLS, the assay gave -0.21, -0.41, -0.49, -0.47, -0.48, -0.31 (mean -0.39; controls 0 of 18).
For KVSPSYLYEDRAFNSVA | NASTRES | QQYHRLPLS, the assay gave 0.32, 0.11, 0.18, 0.05, 0.01, 0.39 (mean 0.18; controls 0 of 18).
For KLSGSVEQLSRNKNSVA | QASTREV | QAYHRLPLS, the assay gave 0.19, -0.18, -0.38, -0.38, -0.37, -0.21 (mean -0.22; controls 1 of 18).
For KLPQSAEYGSRNKNSVA | SASTRES | QQYHRLPLS, the assay gave -0.33, -0.41, -0.55, -0.41, -0.29, -0.24 (mean -0.37; controls 0 of 18).
For KVQQLEPYESRNKNSVA | NASTREH | QQYHRLPLS, the assay gave 0.92, 0.32, 0.68, 0.70, 0.04, 0.62 (mean 0.55; controls 1 of 18).
For KSPQSHLYGSRNKNSVA | NASERES | QQYHRLPLS, the assay gave 0.52, 0.45, 0.16, 0.59, 0.52, 0.35 (mean 0.43; controls 1 of 18).
For KLPQEDWYQSRMKNSVA | DASTRES | QQYHRLPLS, the assay gave -0.13, -0.18, -0.45, -0.33, -0.43, -0.09 (mean -0.27; controls 0 of 18).
For KFKPSFLYWSRNSNAVA | EASTREE | QQYHRLPLS, the assay gave 0.13, 0.11, -0.31, -0.29, -0.45, 0.08 (mean -0.12; controls 1 of 18).
For KLSQSVDYESRQKNSVA | NAQTRMS | QQYHRLPLS, the assay gave -0.15, -0.27, -0.34, -0.32, -0.38, -0.15 (mean -0.27; controls 0 of 18).
For KLSMGHDYESRNKNSVA | QASTREW | QQYHRLPLS, the assay gave 1.82, 1.93, 1.28, 2.00, 1.53, 1.80 (mean 1.73; controls 2 of 18).
For KIFQSWLGEQRNVNSVA | HASQRLD | QQYHRLPLS, the assay gave 0.27, 0.36, 0.27, 0.35, 0.38, 0.36 (mean 0.33; controls 1 of 18).
For KLEQSQLYESRNKNNVA | SASHREH | QQYHRLPLS, the assay gave 0.28, 0.15, -0.13, -0.12, 0.10, 0.42 (mean 0.12; controls 2 of 18).
For KLMQSVQYESRNQNAVA | EASQRES | QQYHRLPLS, the assay gave -0.13, -0.13, -0.31, -0.12, -0.06, 0.07 (mean -0.12; controls 1 of 18).
For KLSFMVMEGSRNKNSVA | SASLREW | QQYHRLPLS, the assay gave 1.00, 0.79, 0.68, 0.85, 0.64, 1.03 (mean 0.83; controls 1 of 18).
For KSSASVEYQERNINSVA | EASQREQ | QQYHRLPLS, the assay gave 1.02, 1.65, 1.13, 1.06, 1.07, 0.70 (mean 1.11; controls 0 of 18).
For KLSQSVLQLWRNKNNVA | QASHRES | QQYHRLPLS, the assay gave 0.98, 0.05, -0.20, 0.31, 0.33, 0.09 (mean 0.26; controls 0 of 18).
For KLPQSVPYEERCFNSVA | HASTRES | QQYHRLPLS, the assay gave 0.57, 0.54, 0.38, 0.54, 0.36, 0.43 (mean 0.47; controls 0 of 18).
For KLSQSWLYEARNSNSVA | AASQRED | QQYHRLPLS, the assay gave 0.58, 0.47, 0.31, 0.15, 0.38, 0.47 (mean 0.39; controls 2 of 18).
For KIQQSVLYEDRVKNSVA | NASDRMS | QQYHRLPLS, the assay gave 0.50, 0.43, 0.25, 0.18, 0.33, 0.65 (mean 0.39; controls 4 of 18).
For KLNISVGYEQRNKNSVA | EASTRED | QQYHRLPLS, the assay gave 0.64, 0.35, -0.11, -0.15, -0.10, 0.30 (mean 0.16; controls 0 of 18).
For FLSGSVLMESRNKNSVA | SADTRLS | QQYHRLPLS, the assay gave 0.23, -0.06, 0.13, -0.29, -0.04, 0.04 (mean 0.00; controls 0 of 18).
For KLSQSWGMESRNKNQVA | HASTRMS | QQYHRLPLS, the assay gave 1.13, 1.27, 1.57, 1.21, 1.30, 1.72 (mean 1.37; controls 1 of 18).
For KVSQSNLYEQRNANNVA | NASLRES | QQYHRLPLS, the assay gave -0.05, -0.34, -0.15, -0.38, -0.13, -0.17 (mean -0.20; controls 4 of 18).
For KLSPEEQYESRNKNSVA | NASLRES | QQYHRLPLS, the assay gave 0.22, 0.10, -0.11, 0.06, 0.11, 0.25 (mean 0.10; controls 0 of 18).
For KLQQSWEYGSRNANSVA | NASQREE | QQYHRLPLS, the assay gave 0.53, 0.84, 0.35, 0.38, 0.37, 0.08 (mean 0.43; controls 0 of 18).
For KLSQSTEYESRMKNSVA | NASYREQ | QQYHRLPLS, the assay gave 0.41, 0.17, 0.02, 0.23, -0.01, 0.06 (mean 0.15; controls 0 of 18).
For KVLQEMPYESRMANSVA | NASQRES | QQYHRLPLS, the assay gave 1.10, 1.10, 0.42, 0.87, 0.46, 0.61 (mean 0.76; controls 0 of 18).
For KSGGGELYESRNKNSVA | GASMRES | QQYHRLPLS, the assay gave 0.00, -0.03, -0.03, -0.32, -0.18, -0.19 (mean -0.12; controls 0 of 18).
For KLMQSWDYESRMKNSVA | DASKRSS | QQYHRLPLS, the assay gave 0.10, -0.10, -0.02, -0.17, -0.02, 0.01 (mean -0.03; controls 2 of 18).
For KVQMKNLYEDRMKNSVA | NASLRES | QQYHRLPLS, the assay gave 0.32, 0.27, 0.16, 0.14, 0.24, 0.38 (mean 0.25; controls 5 of 18).
For KFDQEWPYESRNKNSVA | MASQRCS | QQYHRLPLS, the assay gave 0.21, 0.07, 0.22, -0.18, 0.08, 0.14 (mean 0.09; controls 1 of 18).
For KLSQSFLMESMNKNSVA | HASQRIW | QQYHRLPLS, the assay gave 0.80, 0.43, 0.45, 0.58, 0.28, 0.74 (mean 0.55; controls 1 of 18).
For KLSQSVLMESRMVNSVA | DASQREE | QQYHRLPLS, the assay gave 0.10, 0.22, -0.11, 0.58, 0.08, 0.22 (mean 0.18; controls 1 of 18).
For KYSFSELYESRNKNSVA | EASCREE | QQYHRLPLS, the assay gave 0.77, 0.76, 0.61, 0.90, 0.35, 0.63 (mean 0.67; controls 2 of 18).
For KLQWSWLMQSRNKNSVA | HASMRCS | QQYHRLPLS, the assay gave 1.19, 1.01, 1.60, 1.16, 1.16, 1.84 (mean 1.33; controls 1 of 18).
For KVSQSMDYESRNVNSVA | NASTRLK | QQYHRLPLS, the assay gave 0.04, 0.24, 0.12, -0.06, 0.44, 0.11 (mean 0.15; controls 1 of 18).
For KMQQSNLYESRNKNSVA | NASTRMW | QQYHRLPLS, the assay gave 0.16, -0.01, -0.07, -0.16, -0.08, 0.09 (mean -0.01; controls 1 of 18).
For KLSKSVMYESRMKNSVA | SASTRYE | QQYHRLPLS, the assay gave 0.09, 0.39, -0.06, -0.12, 0.14, 0.24 (mean 0.11; controls 1 of 18).
For KMSQSMWYESRQSNSVA | NASNRLS | QQYHRLPLS, the assay gave 0.34, 0.33, 0.22, 0.19, 0.19, 0.27 (mean 0.26; controls 2 of 18).
For KLSQSDGGESRNKNSVA | HASCRCS | QQYHRLPLS, the assay gave 0.97, 0.80, 1.08, 1.08, 0.80, 0.97 (mean 0.95; controls 5 of 18).
For KLDPSHLGESRNKNAVA | QASTREI | QQYHRLPLS, the assay gave 0.14, -0.23, 0.04, -0.16, -0.09, -0.13 (mean -0.07; controls 1 of 18).
For KLQQLGLYEQRNKNSVA | SASTRCS | QQYHRLPLS, the assay gave 0.14, -0.12, -0.14, -0.12, 0.07, 0.08 (mean -0.02; controls 0 of 18).
For KFMQMVMQEDRNKNSVA | NASTRMQ | QQYHRLPLS, the assay gave 0.71, 0.44, 0.04, 0.33, 0.35, 0.48 (mean 0.39; controls 2 of 18).
For KVPQSMLYESRNANSVA | NASQRLE | QQYHRLPLS, the assay gave 0.23, 0.15, -0.04, -0.08, -0.05, 0.17 (mean 0.06; controls 1 of 18).
For KLSQSVLGGDRNKNSVA | HASTRES | QQYHRLPLY, the assay gave 0.17, 0.23, 0.35, 0.25, 0.07, 0.27 (mean 0.22; controls 1 of 18).
For KLQQSFLYEERNPNSVA | NASLREL | QQYHRLPLS, the assay gave 0.63, 0.42, 0.55, 0.41, 0.22, 0.74 (mean 0.50; controls 1 of 18).
For KLEQGDLMESRNKNSVA | HASHRES | QQYHRLPLS, the assay gave 0.60, 0.22, 0.16, 0.06, 0.35, 0.38 (mean 0.30; controls 2 of 18).

Picked from the list: the 3 lowest averages where every replicate gave a value.

For KSSQSVEMESRNSNNVA | DASQRES | QQYHRLPLS, the assay gave -0.21, -0.41, -0.49, -0.47, -0.48, -0.31 (mean -0.39; controls 0 of 18).
For KLPQSAEYGSRNKNSVA | SASTRES | QQYHRLPLS, the assay gave -0.33, -0.41, -0.55, -0.41, -0.29, -0.24 (mean -0.37; controls 0 of 18).
For KLPQEDWYQSRMKNSVA | DASTRES | QQYHRLPLS, the assay gave -0.13, -0.18, -0.45, -0.33, -0.43, -0.09 (mean -0.27; controls 0 of 18).

The range of this assay differs from that of the first round, and the authors advise against merging the two. The parent sequence was in this pool as ten entries: three were never detected, three once, and four in most replicates, with averages from 0.34 to 2.37. In the paper, a design with two or fewer of six values counts as a poor binder. Background: pairings of all light chain designs with three empty control strains gave a value in 4% of cases (median 2.64, 5th percentile 1.59). Values in that range, when seen in few replicates, are hard to tell from nonspecific mating. For each scFv, signals with the empty controls are counted beside the result.

The measurements come from Li et al. 2023 (doi:10.1038/s41467-023-39022-2) through the FLAb antibody collection.